Measurements taken from patent publication US8846739B2, “TGR5 agonists” (Exelixis Patent Company LLC, priority 2009, dated 2014).
Where two headings read alike, the source gives them in different places.

Protein sequences, listed by entry. Tags and fused reporters are not part of them.
UniProt Q8TDU6, whole entry: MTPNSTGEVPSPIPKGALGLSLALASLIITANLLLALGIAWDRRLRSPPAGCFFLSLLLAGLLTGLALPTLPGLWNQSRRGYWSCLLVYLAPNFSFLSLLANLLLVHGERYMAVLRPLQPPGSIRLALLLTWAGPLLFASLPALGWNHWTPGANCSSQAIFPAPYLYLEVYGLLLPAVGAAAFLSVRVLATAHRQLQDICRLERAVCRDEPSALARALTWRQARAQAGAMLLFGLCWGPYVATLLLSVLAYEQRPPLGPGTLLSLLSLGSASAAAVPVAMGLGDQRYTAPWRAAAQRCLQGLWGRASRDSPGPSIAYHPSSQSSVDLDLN

Columns and labels:
h-TGR5 = h-TGR5 (Homo sapiens, UniProt Q8TDU6); assay: TGR5 cAMP Assay using Cisbio cAMP Dynamic 2 htrf assay kit
human TGR5 (h-TGR5) = human TGR5 (h-TGR5) (Homo sapiens, UniProt Q8TDU6); assay: TGR5/CRE-Luciferase Assay
[1] = read-out: cAMP (EC50), hTGR5CRE-luc HEK 293 cells, tested form: 2,2,2-trifluoroacetate
[2] = read-out: CRE-Luc Agonist (EC50), HEK 293 hTGR5/CRE-Luc cells, 6 hours incubation, tested form: 2,2,2-trifluoroacetate

| Compound | EC50 (h-TGR5; [1]) | EC50 (human TGR5 (h-TGR5); [2]) | EC50 (h-TGR5; read-out: cAMP (EC50), hTGR5CRE-luc HEK 293 cells, tested form: TFA salt) | EC50 (human TGR5 (h-TGR5); read-out: CRE-Luc Agonist (EC50), HEK 293 hTGR5/CRE-Luc cells, 6 hours incubation, tested form: TFA salt) |
| --- | --- | --- | --- | --- |
| CCN(CCC[N+](C)(C)C)S(=O)(=O)c1cc(F)c(CSc2ncc(C(C)(C)c3ccc(Cl)c(OC)c3)n2-c2ccc(F)cc2)c(F)c1 | < 0.1 µM | < 0.1 µM | – | – |
| COc1cc(C(C)(C)c2cnc(SCc3c(F)cc(S(=O)(=O)N(CCCC[N+](C)(C)C)[C@H](C)C(=O)O)cc3F)n2-c2ccc(F)cc2)ccc1Cl | < 0.1 µM | < 0.1 µM | – | – |
| COc1cc(C(C)(C)c2cnc(SCc3c(F)cc(S(=O)(=O)N(CCC[N+](C)(C)C)C(C)(C)C(=O)O)cc3F)n2-c2ccc(F)cc2)ccc1Cl | – | – | < 0.1 µM | < 0.1 µM |
